{"sequences": {"note": "Sequences of proteins named here, by UniProt entry; tags and fusion partners are left off. A change or cut given only in a name is not applied to a line headed by its entry.", "UniProt P56524": "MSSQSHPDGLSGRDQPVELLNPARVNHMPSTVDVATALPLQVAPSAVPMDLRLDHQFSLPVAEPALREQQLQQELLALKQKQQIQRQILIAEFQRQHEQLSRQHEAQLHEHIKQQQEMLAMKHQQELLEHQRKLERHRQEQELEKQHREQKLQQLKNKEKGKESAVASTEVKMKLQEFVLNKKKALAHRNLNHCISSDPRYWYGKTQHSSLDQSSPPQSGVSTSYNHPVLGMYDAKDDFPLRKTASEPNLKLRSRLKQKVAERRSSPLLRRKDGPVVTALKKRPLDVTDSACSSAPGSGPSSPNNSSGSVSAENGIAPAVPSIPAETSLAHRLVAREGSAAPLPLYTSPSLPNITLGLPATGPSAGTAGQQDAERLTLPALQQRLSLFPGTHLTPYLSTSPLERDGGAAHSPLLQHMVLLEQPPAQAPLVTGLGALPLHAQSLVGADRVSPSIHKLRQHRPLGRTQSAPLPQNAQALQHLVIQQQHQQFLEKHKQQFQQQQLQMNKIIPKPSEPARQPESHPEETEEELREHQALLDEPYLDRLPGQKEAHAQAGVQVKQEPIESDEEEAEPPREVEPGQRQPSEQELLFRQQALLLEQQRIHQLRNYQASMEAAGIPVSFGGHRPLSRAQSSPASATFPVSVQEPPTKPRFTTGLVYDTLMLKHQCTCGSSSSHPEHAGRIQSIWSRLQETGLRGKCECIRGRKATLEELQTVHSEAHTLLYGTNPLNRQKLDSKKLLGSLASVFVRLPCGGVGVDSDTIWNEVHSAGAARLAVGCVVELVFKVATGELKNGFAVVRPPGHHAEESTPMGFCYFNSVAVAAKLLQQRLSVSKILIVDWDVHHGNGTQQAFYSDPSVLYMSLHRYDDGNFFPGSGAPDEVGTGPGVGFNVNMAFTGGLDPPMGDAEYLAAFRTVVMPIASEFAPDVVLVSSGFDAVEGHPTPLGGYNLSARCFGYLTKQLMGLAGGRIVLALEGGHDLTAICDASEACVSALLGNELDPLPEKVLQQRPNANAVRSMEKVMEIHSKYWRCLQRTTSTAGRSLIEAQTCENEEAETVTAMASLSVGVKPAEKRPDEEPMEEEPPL"}, "source": "paper PMC11188874", "about": "“HDAC6 Inhibition Releases HR23B to Activate Proteasomes, Expand the Tumor Immunopeptidome and Amplify T-cell Antimyeloma Activity” (Cancer Research Communications, 2024)", "target": "T1, HDAC4 (Homo sapiens, UniProt P56524)", "T1 construct": "purchased Reaction Biology (Malvern, PA)", "assay": "In vitro biochemical activity assay, HDAC4"}
{"smiles": "CN1CCc2c(c3ccccc3n2Cc2ccc(C(=O)NO)cc2)C1", "note": "[Tubastatin-A]", "values": [{"measurement": "IC50", "value": "> 1000", "unit": "nM"}]}
